Data reported in patent US9193689B2, “3-aryl-5-substituted-isoquinolin-1-one compounds and their therapeutic use” (INSTITUTE OF CANCER RESEARCH: ROYAL CANCER HOSPITAL (THE), priority 2012, dated 2015).

Test system: DLD1 cells
Experiment: Long-Term Clonogenic Assay (DLD1 cells)
Format: cell-based
Description: Clonogenic Inhibition in DLD1 or HT55 Cells
In order to determine the efficacy of chronic dosing of putative TNKS inhibitors, long term clonogenic or ‘colony formation’ assays were carried out. This included the sparse seeding of cells in a 6-well dish followed by continuous dosing of cells over 12-14 days (depending on relative cell growth). Appropriate cell lines (DLD1 or HT55) were seeded at 500 cells/well in a 6-well dish in DMEM supplemented with FBS. […] Dosages were carried out in triplicate. Cell media containing compound or DMSO only was replenished every 48 hours. Termination of the assay included the fixation of cells with trichlororacetic acid (1 mL, 10% (v/v), Sigma Aldrich, cat. no. T6399) and incubation for 16 hours at 4° C. Fixed cells were then washed with water, allowed to dry and stained with sulforhodamine B solution (sulforhodamine B 0.05% (w/v), Sigma Aldrich cat. no. S1402, acetic acid 1% (v/v), Fisher Scientific, cat. no. A/0400/PB17)) for 12 hours at room temperature. The stain was then removed and the cells washed copiously with aqueous acetic acid (1% v/v) and allowed to dry.
The data was normalised to the DMSO control and was expressed as surviving fraction as a function of inhibitor dose.

Cc1cccc2c(=O)[nH]c(-c3ccc(CN(C)C)cc3)cc12 [IQ-034]
Clonogenic SF50 (DLD1): < 2 µM
